For this experiment, the system named is rat hippocampal CA3 epileptiform activity. The experiment is classed as cell-based.

Structures can show the parent of a compound that is named as a salt.

Consider `N=C(N)NC(=O)Cc1c(Cl)cccc1Cl` [guanfacine, guanfacine hydrochloride], for which the RE was found to be 0.45.

The molecule `Nc1cc(Cl)c(N=C2NCCN2)c(Cl)c1` [p-aminoclonidine] registered an RE of 0.32.

`Cc1cc(C(C)(C)C)cc(C)c1CC1=NCCN1` [xylometazoline] came in with an RE of 0.20.

The values are drawn from paper PMC10710878 (Journal of receptor and signal transduction research, 2022).
